# Sampled rows, rich in hits. Any-hit rate of the full collection: about 3.7%.
# Nrf2 activator: Nrf2 pathway activation. 410,000 tested, 0.31% active. AREc32 ARE-luciferase reporter (MCF7-derived line), luminescence, 24 h. Potency, µM (highest dose often 46.1 µM), for inactives: top-dose activation, hits mostly activators; also: potency is read from the fitted curve at half-maximal effect; % of control where 0% means no effect; nearly all actives have a fitted effect of over 65% in size
#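 ARE-driven firefly luciferase activity in AREc32 cells measured after a 24 hr compound exposure at 37 deg C, using Steady-Glo reagent and a 30 min room-temperature hold.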
# Nrf2 block: Nrf2 pathway inhibition; A549 ARE-Fluc reporter, luciferase luminescence, 18-24 h; Potency, µM (highest dose often 46 µM), without a hit: top-dose activity change, negative = inhibition, hits mostly inhibitors; 360,000 tested, 2.1% active; AID 504444; also: potency is read from the fitted curve at half-maximal effect; % is scaled to controls: 0 for no effect and ±100 for the full control effect; nearly all actives have a fitted effect of over 60% in size
#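 Cells were seeded and rested 2 h, then exposed to compounds for 18-24 h. CellTiter-Fluor was read first as a viability measure. BugLite was added 15 min before the final luminescent read of ARE-luciferase activity in A549 cells.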
# ClpP mod: qHTS Assay for Activators of ClpP | purified B. subtilis ClpP, FRET peptide cleavage, 20 min | Potency, µM (doses to about 57.5 µM), inactives show top-dose activity change, negative = active | 340,000 tested, 1.9% active | AID 651965, 2013; active = well fitted falling curve with a large enough effect; inconclusive = small, poorly fitted or top-dose-only effect; inactive = no such curve, though single readings can be large or run the other way; also: potency is read from the fitted curve at half-maximal effect; the source files actives as falling curves though it sought activators and does not explain the sign; nearly all actives have a fitted effect of over 65% in size
#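 ClpP 10 microg/mL final, pH 8 Tris/KCl buffer with BSA, glycerol, Tween-20; compound pinned in; FRET-FV substrate; RT 20 min; Ex320/Em430; ΔFRET vs ADEP 5.8 microM, DMSO, no enzyme.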
# A549 tox-1: counter-screen for Nrf2 inhibitors: cytotoxicity in A549 cells; A549 ARE-Fluc cells, CellTiter-Fluor viability, 18-24 h; Potency, µM (top dose mostly 46 µM), without a hit: top-dose activity change, negative = cytotoxicity, hits mostly inhibitors; 390,000 tested, 0.16% active; also: potency is read from the fitted curve at half-maximal effect; % is scaled to controls: 0 for no effect and ±100 for the full control effect
#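 A549 ARE_Fluc cells in 5% FBS OPTI-MEM were exposed to compounds in concentration-response for 18-24 h at 37 deg C. Viability was read by CellTiter-Fluor fluorescence (Ex 405/Em 525) after 30 min, before the luciferase read.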
# TCR act: T cell receptor activation; 330,000 tested, under 10 active; primary human leukocytes, anti-CD3, IL-2 HTRF, 48 h; AID 504894; Potency, µM (titrated, usually from 9.22 µM), for the others: top-dose activation of IL-2 secretion, actives largely listed as activators; also: % of control where 0% means no effect
#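 48 hr co-incubation of compounds, a-CD3 beads and primary human leukocytes; IL-2 quantified homogeneously by HTRF with anti-IL-2 K and d2 conjugates.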
# miR-21 FLuc: miR-21 reporter, rising signal | HeLa miR-21 FLuc reporter, luciferase, 48 h | Potency, µM (top dose mostly 38.3 µM), inactives show at the top dose reporter change, positive = more light | 340,000 tested, under 10 active | AID 2288; active = well fitted rising curve with a large enough effect; inconclusive = small, poorly fitted or top-dose-only effect; inactive = no such curve, though single readings can be large or run the other way;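 further: % of control where 0% means no effect; miR-21 action dims this reporter so a rising signal means less miR-21 action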
#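 HeLa cells endogenously expressing miR-21, stably carrying CMV-driven firefly luciferase with a downstream miR-21 binding site, 2000 cells/well. Titrations up to approximately 40 uM, 48 hours; luciferase luminescence read.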
# FLuc counter 3: firefly luciferase inhibition, Nrf2 hit validation | shares compounds with Nrf2 block | purified firefly luciferase, luminescence inhibition | Potency, µM (series often up to 57.5 µM), inactives show at the highest dose activity change, negative = inhibition, hits mostly inhibitors | 1,400 tested, 4% active; also: potency is read from the fitted curve at half-maximal effect; % is scaled to controls: 0 for no effect and ±100 for the full control effect; nearly all actives have a fitted effect of over 65% in size
# A549 tox-2: counter-screen for Nrf2 inhibitors: cytotoxicity in A549 ARE cells; shares compounds with Nrf2 block; A549 ARE-Fluc cells, cytotoxicity counterscreen; Potency, µM (titrated, usually from 46.1 µM), for inactives: at the top dose activity change, negative = cytotoxicity, usual class: inhibitors; 1,400 tested, 2% active; AID 720523;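 also: potency is read from the fitted curve at half-maximal effect; cells exposed to compounds for 18 to 24 hours; % is scaled to controls: 0 for no effect and ±100 for the full control effect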
# Nrf2 ARE inh: reduces Nrf2 ARE reporter signal in A549 cells | Potency, µM (doses to about 46.1 µM), for the others: at the top dose activity change, negative = inhibition, actives largely listed as inhibitors | A549 ARE-firefly luciferase reporter, luminescence | AID 720524 | 1,400 tested, 74% active | shares compounds with Nrf2 block; also: potency is read from the fitted curve at half-maximal effect; % is scaled to controls: 0 for no effect and ±100 for the full control effect; nearly all actives have a fitted effect of over 65% in size
# Starred values were filed as active, the others as inactive; ? = inconclusive; / = no result given. Unless noted, calls follow the shape of the dose curve; as a rule, active = well fitted curve in the direction sought with a large enough effect; inconclusive = small, poorly fitted or top-dose-only effect, or another doubt; inactive = no such curve, though single readings can be large; an effect the other way counts as inactive or inconclusive.
compound,TCR act,A549 tox-1,Nrf2 activator,miR-21 FLuc,FLuc counter 3,A549 tox-2,ClpP mod,Nrf2 ARE inh,Nrf2 block
O=C(NNC(=O)c1cccc(S(=O)(=O)N2CCc3ccccc32)c1)c1ccccc1,20%,-28%,5%,14%,-19%,-2%,/,5.2µM*,8.2µM*
CC(C)CCNC(=O)c1cccc(S(=O)(=O)N2CCc3ccccc32)c1,4%,2%,0%,12%,/,/,0%,/,-1%
CN(C)S(=O)(=O)c1cccc(NC(=O)c2cccc(S(=O)(=O)N3CCc4ccccc43)c2)c1,/,-12%,3%,/,0%,-10%,-4%,16µM*,4.6µM*
CSc1cccc(N2CC(C(=O)N(CC(C)C)c3c(N)n(Cc4ccccc4)c(=O)[nH]c3=O)CC2=O)c1 (centres undefined),-4%,-11%,0%,/,/,/,6%,/,5%
COc1ccc(CCC(=O)NNC(=O)c2cc(Cl)ccc2OC)cc1,10%,-4%,0%,-8%,/,/,/,/,-1%
CCc1ccccc1NC(=O)c1ccc(Cn2nc(N3CCN(c4ccccc4)CC3)ccc2=O)o1,/,-9%,-1%,24%,/,/,-2%,/,?
CCc1ccc(NC(=O)c2ccc(Cn3nc(N4CCN(c5ccccc5)CC4)ccc3=O)o2)cc1,/,?,-1%,15%,?,-14%,-1%,6.5µM*,5.2µM*
COc1ccc(C2c3cc(OC)c(OC)cc3CC(=O)N2c2ccc(C)c(F)c2)cc1 (centres undefined),/,-5%,0%,24%,/,/,-2%,/,-14%
CCOC(=O)c1c(NC(=O)/C=C/c2ccc(C(C)C)cc2)sc2c1CCC2,/,0%,0%,3%,/,/,-2%,/,0%
CCOc1ccc(CCNc2ncnc3onc(-c4ccc(Cl)cc4)c23)cc1,/,-9%,-1%,11%,2%,0%,-8%,13µM*,7.3µM*
OCC[n+]1ccc(/C=C/c2c[nH]c3ccccc23)cc1,3%,?,-1%,16%,0%,?,1%,8.2µM*,6.5µM*
CCCCCCCCCCCCCCCC[n+]1ccc(/C=C/c2c[nH]c3ccccc23)cc1,/,/,/,/,?,?,-1%,7.3µM*,/
CC1ON=C(c2cccc3ccccc23)N(C)C1=O (centres undefined),/,/,0%,/,/,/,0%,/,/
Oc1c(C(Nc2ccccn2)c2ccccn2)ccc2cccnc12 (centres undefined),0%,-11%,0%,10%,/,/,1%,/,?
Oc1ccccc1C(Nc1nccs1)c1ccc2cccnc2c1O (centres undefined),1%,?,3%,21%,1%,-27%,/,13µM*,5.8µM*
Cc1ccc(CNC(=O)Cn2cc(S(=O)(=O)Cc3ccccc3Cl)c3ccccc32)cc1,/,-1%,7%,-2%,/,/,-3%,/,-12%
Cc1ccc(-n2ncc3c2CCCC3NC(=O)c2ocnc2C)cc1C (centres undefined),-3%,-17%,0%,14%,0%,-2%,0%,3.3µM*,2.3µM*
Cc1nnsc1C(=O)NC1CCCc2c1cnn2-c1ccc(F)cc1F (centres undefined),-3%,-18%,2%,17%,-15%,-9%,-1%,3.7µM*,1.2µM*
Cc1cc(C(=O)NC2CCCc3c2cnn3-c2cccc(C)c2C)n(C)n1 (centres undefined),-10%,-21%,0%,23%,-1%,?,0%,0.021µM*,0.21µM*
CC(C)(C)c1ccc(-n2ncc3c2CCCC3NC(=O)c2cnccn2)cc1 (centres undefined),-3%,-12%,5%,-11%,/,/,/,/,?
Cc1nnsc1C(=O)NC1CCCc2c1cnn2-c1cc(F)cc(F)c1 (centres undefined),3%,2%,-1%,-8%,/,/,-5%,/,?
Cn1nccc1C(=O)NC1CCCc2c1cnn2-c1ccc(C(C)(C)C)cc1 (centres undefined),-2%,-19%,3%,24%,?,-12%,-16%,0.73µM*,0.73µM*
O=C(CC1CCCC1)NCCS(=O)(=O)N1CCN(c2ccccc2)CC1,/,/,1%,/,/,/,-2%,/,/
COc1ccc(CN2C[C@@H](CO)O[C@@H](n3cnc4c(NCc5ccncc5)ncnc43)C2)cc1,/,/,1%,/,/,/,0%,/,/
COc1ccccc1-c1nc(SCC(=O)NCc2ccccc2)c2c(=O)n(C)c(=O)n(C)c2n1,/,2%,-1%,2%,/,/,-8%,/,/
Nc1ccc(N2CCCCC2)c(S(=O)(=O)Nc2ccccc2Cl)c1,6%,1%,3%,-1%,/,/,/,/,-11%
Nc1cc(S(=O)(=O)Nc2ccccc2Cl)ccc1N1CCCCC1,2%,-10%,0%,/,9.5µM*,-4%,-5%,15µM*,7.3µM*
Cc1ccc(C(=O)NCc2cccc(C(F)(F)F)c2)cc1S(=O)(=O)N1CCCCC1,-2%,-14%,0%,/,-2%,-2%,/,?,3.7µM*
Cc1ccc(C(=O)NCc2ccco2)cc1S(=O)(=O)N1CCCCC1,-7%,5%,5%,-6%,/,/,-1%,/,-8%
CCCCC(=O)N(C)c1c(CC)nc2c(OCC(=O)c3ccc(Cl)cc3Cl)cccn12,/,/,2%,/,/,/,-9%,/,/
Cc1ccc2c(c1)S/C(=C/c1ccc[n+](C)c1)N2CCO,-3%,-16%,4%,27%,0%,-17%,0%,6.5µM*,2.6µM*
Cc1nc2ccccn2c1-c1csc(Nc2cccc(O)c2)n1,-27%,-10%,15%,-12%,/,/,/,/,-2%
Cc1cccc(Nc2nc(-c3c(C)nc4ccccn34)cs2)c1,-21%,-24%,7%,26%,-28%,-21%,-11%,6.5µM*,9.2µM*
Cc1ccc(C)c(NC(=S)NC(NC(=O)/C=C/c2ccccc2)C(Cl)(Cl)Cl)c1 (centres undefined),5%,-27%,0%,3%,-21%,?,1%,0.37µM*,8.2µM*

# Random excerpt: 5 compounds from above
compound,TCR act,A549 tox-1,Nrf2 activator,miR-21 FLuc,FLuc counter 3,A549 tox-2,ClpP mod,Nrf2 ARE inh,Nrf2 block
Cc1ccc(C(=O)NCc2cccc(C(F)(F)F)c2)cc1S(=O)(=O)N1CCCCC1,-2%,-14%,0%,/,-2%,-2%,/,?,3.7µM*
Cc1nc2ccccn2c1-c1csc(Nc2cccc(O)c2)n1,-27%,-10%,15%,-12%,/,/,/,/,-2%
Cc1ccc2c(c1)S/C(=C/c1ccc[n+](C)c1)N2CCO,-3%,-16%,4%,27%,0%,-17%,0%,6.5µM*,2.6µM*
Cc1ccc(C)c(NC(=S)NC(NC(=O)/C=C/c2ccccc2)C(Cl)(Cl)Cl)c1 (centres undefined),5%,-27%,0%,3%,-21%,?,1%,0.37µM*,8.2µM*
CCCCC(=O)N(C)c1c(CC)nc2c(OCC(=O)c3ccc(Cl)cc3Cl)cccn12,/,/,2%,/,/,/,-9%,/,/
